These results are taken from PMC4481117.

The target in one test is dynorphin A. Briefly: cell adhesion assay; peptides coated on microtiter wells (3 h, 37 °C), post-coated with 1 % PVP; calcein-labeled HEK293 transfectants, 5x10^4 cells per well, 30 min at 37 °C; concentrations are coating concentrations.
The target of another test is dynorphin B. Described as above.

For “integrin Mac-1 (αMβ2, CD11b/CD18) on HEK293 cells (from UniProt P11215 17-1152; P05107 23-769) (receptor)”, the values for the EC50 in the test with dynorphin A and with dynorphin B were 0.2 to 0.5 µM and 7.5 µM, respectively.
